In publication PMC10526228:

Assays:
S100A6 (Homo sapiens) = S100A6 (Homo sapiens) (UniProt P06703); settings: cited from earlier work
interleukin-2 (human) = interleukin-2 (human) (UniProt P60568); assay: SPR; cytokine immobilised by amine coupling on a ProteOn GLH chip (ProteOn XPR36); S100A6 as analyte, 63 nM–8 µM, 300 s; 25 °C; 10 mM HEPES, 150 mM NaCl, 1 mM CaCl2, 0.05% Tween 20, pH 7.4; heterogeneous ligand model (single-site scheme for IL-2)
growth hormone (human) = growth hormone (human) (UniProt P01241); assay: as above
prolactin (human) = prolactin (human) (UniProt P01236); assay: as above

Substance | Kd (S100A6 (Homo sapiens)) [µM] | Kd (interleukin-2 (human)) [µM] | koff (interleukin-2 (human)) [s⁻¹] | Kd1 (KD, ligand population 1) (growth hormone (human)) [µM] | Kd2 (KD, ligand population 2) (growth hormone (human)) [µM] | kd1 (koff, ligand population 1) (growth hormone (human)) [s⁻¹] | kd2 (koff, ligand population 2) (growth hormone (human)) [s⁻¹] | Kd1 (KD, ligand population 1) (prolactin (human)) [µM] | Kd2 (KD, ligand population 2) (prolactin (human)) [µM] | kd1 (koff, ligand population 1) (prolactin (human)) [s⁻¹] | kd2 (koff, ligand population 2) (prolactin (human)) [s⁻¹]
S100A6 (from UniProt P06703) | < 0.5 |  |  |  |  |  |  |  |  |  | 
S100A6 protein (from UniProt P06703 1-90) (natural protein; other documents disagree on this pair) |  | 12 | 0.00497 | 0.342 | 0.416 | 0.000373 | 0.00587 | 0.084 | 0.635 | 0.000159 | 0.0155
